# System: SKBR-3 cells
# Type: cell-based, human
# Conditions: concentrations significantly above the EC50
# Description: Proliferation was measured by standard BrdU cell proliferation assay (Calbiochem). Cell lines were plated in 96-well plates (20,000 cells/well) in D-10 media with indicated amount of peptide with 2% DMSO, and incubated overnight. The BrdU compound was given to the cells for 2 hrs. Following the manufacturer's protocol, samples were analyzed by UV absorbance measurements at 450 nm. Peptide signal was normalized to cells incubated with 2% DMSO but no peptide. IC50 data was generated by fitting the data to a drug response equation (Log(drug) vs. Response, GraphPad Prism 5.0).
# The peptides were then screened for function using a standard in vitro assays used to test efficacy of Her-2 targeting molecules. The assay involved analyzing a molecule's ability to inhibit proliferation in cell culture. A widely used kit is the BrdU cell proliferation assay. In this assay, cells are incubated with the molecule of interest before having their media supplemented with a bromodeoxyuridine. Bromodeoxyuridine is incorporated into the DNA of proliferating cells. DNA with this modified base is recognized with an antibody, and quantitated by ELISA. Applicants tested the peptides and compared them with their parental molecules.
substance,measurement,setting,value
Herceptin: FDA approved monoclonal antibody to the ectodomain of Her-2 [reference compound],proliferation relative to untreated cells (maximal effect),,75%
same,maximal inhibition of proliferation,100−(% proliferation),25%

# From patent US20180312539A1, “METHODS FOR PREPARING HIGH THROUGHPUT PEPTIDOMIMETICS, ORALLY BIOAVAILABLE DRUGS AND COMPOSITIONS CONTAINING SAME” (University of Southern California, priority 2011, published 2018)
